The record followed here is US20210269519A1 (University of Texas, published 2021).

The target in experiment [1] is T1, Flag tagged-human Lmbr1l (limb region 1 like, LMBR1L) (human, UniProt Q6UX01 1-489).
T1 construct: It carries a Flag tag; also called h-LMBR1L; LIMR
T1 sequence: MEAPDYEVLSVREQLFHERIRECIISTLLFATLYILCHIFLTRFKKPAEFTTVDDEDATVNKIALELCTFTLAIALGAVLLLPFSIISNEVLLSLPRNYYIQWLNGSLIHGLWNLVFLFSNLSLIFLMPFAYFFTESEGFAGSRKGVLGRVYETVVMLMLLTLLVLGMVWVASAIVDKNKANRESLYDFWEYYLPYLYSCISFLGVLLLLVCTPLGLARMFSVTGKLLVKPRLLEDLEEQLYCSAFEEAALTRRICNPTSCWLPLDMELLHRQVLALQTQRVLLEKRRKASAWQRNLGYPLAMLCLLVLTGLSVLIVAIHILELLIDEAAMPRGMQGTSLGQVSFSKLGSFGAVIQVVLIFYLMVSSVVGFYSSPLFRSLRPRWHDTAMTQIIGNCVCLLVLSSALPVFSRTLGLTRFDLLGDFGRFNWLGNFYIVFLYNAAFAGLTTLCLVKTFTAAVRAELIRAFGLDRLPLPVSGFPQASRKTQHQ
The experiment in a line: anti-FLAG co-IP from HEK293T lysate + LC-MS/MS, vs empty vector. As for the experimental part: We sought to understand the immune function of LMBRL1 by identifying LMBR1L-interacting proteins using co-immunoprecipitation (co-IP) combined with mass spectrometry (MS) analysis. Among the 1,623 candidate proteins identified as putative LMBR1L interactors (Dataset S1), 25 proteins were >50-fold more abundant in the LMBR1L co-IP product relative to empty vector control (Table 1).
Co-immunoprecipitation and mass spectrometry were performed to identify Lmbr1l-interacting proteins as described below. Transfection was performed in HEK293T cells (ATCC) using Lipofectamine 2000 reagent (Life technologies) with plasmid encoding Flag tagged-human Lmbr1l or empty vector control. Forty-eight hours after transfection, cells were harvested in NP-40 lysis buffer for 45 min at 4° C. […] The proteins were eluted with SDS sample buffer and heated at 95° C. for 10 min. Lysates were loaded onto 12% (wt/vol) SDS-PAGE gel and run 1 cm into the separation gel. The gel was stained with Coomassie blue (Thermo Fisher) and whole stained lanes were subjected to mass spectrometry analysis (LCMS/MS) as described previously (33).

Experiment [2] has as its target T2, Flag-human LMBR1L-V5 (N-terminus FLAG-tagged and C-terminus V5-tagged recombinant human LMBR1L) (human, UniProt Q6UX01 1-489).
T2 construct: Probe of the ProtoArray Human Protein Microarray V5.1, purified from HEK293T cells on anti-FLAG M2 gel and used at 50 ug/ml
T2 sequence: T1 sequence
The experiment in a line: ProtoArray human protein microarray probed with Flag-human LMBR1L-V5. The source says:
FIGS. 4A-4C. LMBR1L negatively regulates Wnt signaling. (A, B) LMBR1L physically interacts with components of the Wnt signaling pathway. […] A construct expressing both N-terminus FLAG-tagged and C-terminus V5-tagged human LMBR1L was transfected into HEK293T cells and the recombinant protein was purified using anti-FLAG M2 agarose beads. Binding between recombinant human LMBR1L and purified human proteins printed in duplicate on the microarray slide was probed with anti-V5-Alexa 647 antibody. (B) HEK293T cells were transfected with either FLAG-tagged GSK-3β, β-catenin, ZNRF3, RNF43, FZD6, LRP6, DVL2, or empty vector (EV) and HA-tagged LMBR1L. Lysates were subsequently immunoprecipitated using anti-FLAG M2 agarose and immunoblotted with antibodies against HA or FLAG. (C) Immunoblot analysis of β-catenin, phospho-β-catenin, AXIN1, DVL2, GSK-3α/β, phospho-GSK-3β, CK1, β-TrCP, c-Myc, p53, p21, caspase-3, cleaved caspase-3, caspase-9, cleaved caspase-9, and GAPDH in TCLs of pooled CD8⁺ T cells from Lmbr1l^{-/-} or wild-type littermates. Data are representative of three-to-five independent experiments.
The ProtoArray Human Protein Microarray V5.1 (Invitrogen) was used to identify human Lmbr1l-interacting proteins according to manufacturer's instructions. […]

B1: transitional endoplasmic reticulum ATPase (TERA known as VCP) (enzyme)
chain: not shown
notes: Identified by LC-MS/MS in the LMBR1L co-IP; also called VCP (TERA)
For the molecule B1, in experiment [1], the “Ratio h-LMBR1L/h-vector” value amounted to 120 ratio.

B2: GSK-3β (purified human protein printed on the ProtoArray Human Protein Microarray V5.1) (enzyme, UniProt P49841 1-420, looked up)
chain: MSGRPRTTSFAESCKPVQQPSAFGSMKVSRDKDGSKVTTVVATPGQGPDRPQEVSYTDTKVIGNGSFGVVYQAKLCDSGELVAIKKVLQDKRFKNRELQIMRKLDHCNIVRLRYFFYSSGEKKDEVYLNLVLDYVPETVYRVARHYSRAKQTLPVIYVKLYMYQLFRSLAYIHSFGICHRDIKPQNLLLDPDTAVLKLCDFGSAKQLVRGEPNVSYICSRYYRAPELIFGATDYTSSIDVWSAGCVLAELLLGQPIFPGDSGVDQLVEIIKVLGTPTREQIREMNPNYTEFKFPQIKAHPWTKVFRPRTPPEAIALCSRLLEYTPTARLTPLEACAHSFFDELRDPNVKLPNGRDTPALFNFTTQELSSNPPLATILIPPHARIQAAASTPTNATAASDANTGDRGQTNNAASASASNST
Take B2: the binding result in experiment [2] is “binds”.
